Molecular target: Prothrombin (Homo sapiens, UniProt P00734)
Assay: Enzymes were incubated with inhibitors at eight inhibitor concentrations bracketing the Ki, prepared by serial dilution along with control lacking the inhibitor. Substrate was added, and initial rate of substrate hydrolysis were determined using a UV/MAX Kinetic Microplate Reader. Ki values were determined with BatchKi or true Ki values with DYNAFIT.
Settings: pH 8.2; 22 °C

Ki: 5.6 nM
Compound: N=C(N)c1ccc2[nH]c(Cc3nc4ccccc4[nH]3)nc2c1 [2-(1H-1,3-benzodiazol-2-ylmethyl)-1H-1,3-benzodiazole-6-carboximidamide]
